Test results from article PMC6447837 (Cancer Science, 2019).

The chains behind the UniProt entries cited, without tags or fusion partners. Where a name states a change or a piece, a line headed by the entry shows the natural chain unless it says otherwise.
UniProt P42685: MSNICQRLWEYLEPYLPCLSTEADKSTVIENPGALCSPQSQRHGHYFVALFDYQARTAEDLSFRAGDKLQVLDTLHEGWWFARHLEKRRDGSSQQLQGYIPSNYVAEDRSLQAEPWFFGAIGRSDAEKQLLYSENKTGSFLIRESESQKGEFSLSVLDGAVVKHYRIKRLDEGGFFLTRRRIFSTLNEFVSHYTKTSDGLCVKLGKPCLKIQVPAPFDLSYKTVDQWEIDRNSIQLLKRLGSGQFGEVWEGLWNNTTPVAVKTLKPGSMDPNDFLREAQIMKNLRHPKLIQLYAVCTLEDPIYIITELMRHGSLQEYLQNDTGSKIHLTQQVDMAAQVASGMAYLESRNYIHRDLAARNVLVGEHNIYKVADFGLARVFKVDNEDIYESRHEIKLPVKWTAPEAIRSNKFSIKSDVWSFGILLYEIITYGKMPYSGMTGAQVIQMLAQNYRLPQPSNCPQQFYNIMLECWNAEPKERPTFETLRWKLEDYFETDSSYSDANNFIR

Key:
PTK5 = PTK5 (Homo sapiens, UniProt P42685); assay: Radiometric kinase IC50 assay; type: biochemical
Capan‐1 = assay: MTT antiviability assay; conditions: Homo sapiens, CAPAN-1, 72 h
Src = assay: Immunohistochemistry of xenograft tumor tissues; type: in vivo, NOD‐SCID mice; conditions: Aspc‐1 and Bxpc‐3 models; LY‐1816 and dasatinib 40 mg/kg/d p.o., gemcitabine 80 mg/kg/wk; IHC

Row | Structure (SMILES) | IC50 (PTK5) [µM] | IC50 (Capan‐1) [µM] | phosphorylation of Src in tumor tissues (Src)
1 | Cc1ccc(NC(=O)c2ccc(C)c(C(F)(F)F)c2)cc1C#Cc1nn(C2CCC(O)CC2)c2ncnc(N)c12 (stereo not drawn) [LY‐1816, N‐(3‐((4‐amino‐1‐(4‐hydroxycyclohexyl)‐1H‐pyrazolo[3,4‐d]pyrimidin‐3‐yl)ethynyl)‐4‐methylphenyl)‐4‐methyl‐3‐(trifluoromethyl)benzamide] | 0.019 | 0.255 ± 0.026 | 
2 | Cc1nc(Nc2ncc(C(=O)Nc3c(C)cccc3Cl)s2)cc(N2CCN(CCO)CC2)n1 [dasatinib] |  |  | downregulated the phosphorylation of Src
